Test results taken from article PMC3713777 (Bioorganic & medicinal chemistry, 2010).

System: SERT
Settings: ratio of Ki values taken from references 31 and 32

Question: `Fc1ccc([C@@H]2CCNC[C@H]2COc2ccc3c(c2)OCO3)cc1` [Paroxetine] was tested. Which DAT/SERT did it give?
Answer: Its DAT/SERT is 2000.
